Key:
DRD4 L1113.28F [1] = molecular target: T1, DRD4 L1113.28F (Homo sapiens, UniProt P21917, L111F); experiment: biochemical
T1 sequence (P21917 1-419 L111F): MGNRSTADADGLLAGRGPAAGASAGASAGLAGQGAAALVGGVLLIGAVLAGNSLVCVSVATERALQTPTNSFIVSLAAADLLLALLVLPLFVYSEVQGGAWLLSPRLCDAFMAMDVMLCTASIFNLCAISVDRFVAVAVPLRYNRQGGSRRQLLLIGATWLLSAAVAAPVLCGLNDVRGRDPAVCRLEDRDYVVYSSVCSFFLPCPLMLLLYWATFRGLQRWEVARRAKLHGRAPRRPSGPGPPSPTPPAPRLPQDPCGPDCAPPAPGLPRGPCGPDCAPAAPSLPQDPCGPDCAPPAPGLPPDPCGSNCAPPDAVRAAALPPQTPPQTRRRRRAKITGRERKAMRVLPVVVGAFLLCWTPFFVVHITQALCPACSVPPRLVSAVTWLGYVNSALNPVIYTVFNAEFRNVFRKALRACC

DRD4 L1113.28F [2] = molecular target: T1, DRD4 L1113.28F

SMILES: OC1(c2ccc(Cl)cc2)CCN(Cc2c[nH]c3ccccc23)CC1 [L-741626]
- Ki (DRD4 L1113.28F [1]): 0.347 µM
- ΔpKi (mutant-WT) (DRD4 L1113.28F [2]; DRD4 L1113.28F vs DRD4 wild-type): -0.31
- binding affinity decreased, mutant vs wild type (DRD4 L1113.28F [2]; DRD4 Leu111^3.28Phe vs wild-type DRD4): 2.04 fold
